The chains behind the UniProt entries cited, without tags or fusion partners. Residues count along the entry.
UniProt O60896, 24-148: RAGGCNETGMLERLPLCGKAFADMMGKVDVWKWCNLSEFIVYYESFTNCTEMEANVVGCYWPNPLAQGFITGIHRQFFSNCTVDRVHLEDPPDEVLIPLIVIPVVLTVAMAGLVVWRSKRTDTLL
UniProt Q16602, 23-461: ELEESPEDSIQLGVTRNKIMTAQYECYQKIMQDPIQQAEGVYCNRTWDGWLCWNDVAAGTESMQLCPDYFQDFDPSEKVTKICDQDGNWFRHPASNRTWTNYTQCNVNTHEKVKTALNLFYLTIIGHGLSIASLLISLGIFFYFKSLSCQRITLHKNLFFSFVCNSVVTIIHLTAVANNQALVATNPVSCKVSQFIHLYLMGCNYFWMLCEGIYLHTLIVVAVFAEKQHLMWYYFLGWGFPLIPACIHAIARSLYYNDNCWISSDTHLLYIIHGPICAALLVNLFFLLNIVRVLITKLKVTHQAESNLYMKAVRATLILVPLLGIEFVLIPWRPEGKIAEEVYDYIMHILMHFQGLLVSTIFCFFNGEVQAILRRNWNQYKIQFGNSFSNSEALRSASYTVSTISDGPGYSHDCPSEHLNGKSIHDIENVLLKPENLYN

According to article PMC8006142 (Journal of Medicinal Chemistry, 2021):

Molecular target: AM2 receptor (Homo sapiens, UniProt O60896+Q16602)
Test: TR-FRET cAMP accumulation, inhibition of agonist-induced cAMP in AM2 receptor-overexpressing cells
Type: cell-based
Conditions: Table 1, different CLR-binding fragments
Procedure: The ability of the compounds to inhibit cAMP production induced by an EC50 concentration of the maximum agonist activation (information previously published[34]) in GPCR/RAMP-overexpressing cells (i.e., AM2, CGRP cells) was evaluated using cAMP accumulation assays. Each compound was tested at 8 full-log concentrations (10^–11–10^–5 M) including a negative control (blank). The total cAMP was measured using the TR-FRET LANCE cAMP detection kit (PerkinElmer, AD0264), as described previously.[34] Briefly, frozen cells ([…]) were thawed and prepared in warm stimulation buffer (1× HBSS, 5 mM N-(2-hydroxyethyl)piperazine-N′-ethanesulfonic acid (HEPES), 0.5 mM IBMX, and 0.1% bovine serum albumin (BSA)). Alexa Fluor conjugated anti-cAMP (1:100 concentration) was then added to the cell suspension, and cells were plated (2500 cells, 6 μL) in a 384-well white opaque microtiter plate (OptiPlates, PerkinElmer, 6007299). […] Subsequently, a 12 μL detection mix (Europium-Chelate streptavidin/biotinylated cAMP) was added to stop the reaction and induce cell lysis. TR-FRET was detected after an hour of incubation by an EnSight multimode Plate reader (PerkinElmer) at 320/340 nm excitation and 615/665 nm emission. Data were normalized to agonist only and blank (stimulation buffer only) wells as 0 and 100% cAMP inhibition, respectively. […]

## CN1C(=O)NC(=O)C12Cc1ccc(NC(=O)CN(Cc3ccccc3)C(=O)C(C)(C)C)cc1C2 (stereo not shown) [Compound 1, reference compound]
  AM2 pIC50: 5.9
